Source: PMC11125646 (Viruses, 2024)

Tested on: OC43
Test: Adsorption assay (OC43, Vero-76)
Details: virus and cells incubated at 4 °C in presence of compound

## Dextran sulphate [reference compound]
  block of OC43 viral binding (adsorption): efficiently able to block OC43 viral binding
